Experimental data published in ChEMBL document CHEMBL1629505, “Antiarrhythmic, serotonin antagonist and antianxiety activities of novel substituted thiophene derivatives synthesized from 2-amino-4,5,6,7-tetrahydro-N-phenylbenzo[b]thiophene-3-carboxamide” (Eur J Med Chem, 2010).

Tested on: Mus musculus
Assay: Antianxiety activity in ip dosed Albino mouse assessed as increase in locomotor activity after 30 mins relative to Diazepam
Type: functional

Work on `CN1C(=O)CN=C(c2ccccc2)c2cc(Cl)ccc21` [DIAZEPAM] yielded a Ratio of 1.
